Results as given in patent US12528818B2, “Compositions and methods for inhibition of RAS” (Leidos Biomedical Research, Inc., priority 2021, dated 2026).

Tests used:
[1] = target: GppNHp-loaded KRAS4b (amino acids 1-169) G12C/C118S protein (Homo sapiens, UniProt P01116, C118S/G12C); experiment: Covalent cysteine 12 modification by MALDI-TOF MS, GppNHp-loaded KRAS G12C; format: biochemical; conditions: 15 minutes reaction time, compounds 94 or before using 5 μM proteins
[2] = target: GDP-loaded KRAS4b (amino acids 1-169) G12C/C118S protein (Homo sapiens, UniProt P01116, C118S/G12C); experiment: Covalent cysteine 12 modification by MALDI-TOF MS, GDP-loaded KRAS G12C; format: biochemical; conditions: 15 minutes reaction time, compounds 94 or before using 5 μM proteins
[3] = target: Avi-KRAS G12C (1-169) GppNHp/RAF1 RBD-3xFLAG (52-151) (Homo sapiens, UniProt P01116, G12C); experiment: biochemical; conditions: Raf1-GppNHp-KRAS G12C disruption, Raf1 RBD-KRAS G12C-GppNHp disruption assay IC50

| SMILES | GppNHp-KRAS G12C percent of modification [1] | GDP-KRAS G12C percent of modification [2] | IC50 [3] |
| --- | --- | --- | --- |
| CC(Cl)C(=O)N1CC(Nc2ncnc3c(F)c(-c4ccc(F)c5sc(N)nc45)c(Cl)cc23)C1 (stereo not drawn) [Compound 20, 1-[3-[[7-(2-amino-7-fluoro-1,3-benzothiazol-4-yl)-6-chloro-8-fluoro-quinazolin-4-yl]amino]azetidin-1-yl]-2-chloro-propan-1-one] | D (percent of modification <10%) | C (10%≤percent of modification <50%) | > 20 µM |
| Nc1nc2c(-c3c(Cl)cc4c(NC5CN(C(=O)C(F)Cl)C5)ncnc4c3F)ccc(F)c2s1 (stereo not drawn) [Compound 21, 1-[3-[[7-(2-amino-7-fluoro-1,3-benzothiazol-4-yl)-6-chloro-8-fluoro-quinazolin-4-yl]amino]azetidin-1-yl]-2-chloro-2-fluoro-ethanone] | D (percent of modification <10%) | D (percent of modification <10%) | > 20 µM |
| C#CC(=O)N1CC(Nc2ncnc3c(F)c(-c4ccc(F)c5sc(N)nc45)c(Cl)cc23)C1 [Compound 22, 1-[3-[[7-(2-amino-7-fluoro-1,3-benzothiazol-4-yl)-6-chloro-8-fluoro-quinazolin-4-yl]amino]azetidin-1-yl]prop-2-yn-1-one] | C (10%≤percent of modification <50%) | A (percent of modification ≥70%) | 5 to 20 µM |
| C=CC(=O)N1CC(Nc2nc(OC[C@@H]3CCCN3C)nc3c(F)c(-c4ccc(F)c5sc(N)nc45)c(Cl)cc23)C1 [Compound 23, 1-(3-((7-(2-amino-7-fluorobenzo[d]thiazol-4-yl)-6-chloro-8-fluoro-2-(((S)-1-methylpyrrolidin-2-yl)methoxy)quinazolin-4-yl)amino)azetidin-1-yl)prop-2-en-1-one] | A (percent of modification ≥70%) | A (percent of modification ≥70%) | < 0.5 µM |
| CCOC(=O)/C=C/C(=O)N1CC(Nc2ncnc3c(F)c(-c4ccc(F)c5sc(N)nc45)c(Cl)cc23)C1 [Compound 24] | B (50≤percent of modification <70%) | A (percent of modification ≥70%) | 0.5 to 5 µM |
| Nc1nc2c(-c3c(Cl)cc4c(N5CCC6(CC5)CN(C(=O)CCl)C6)ncnc4c3F)ccc(F)c2s1 [Compound 25] | D (percent of modification <10%) | A (percent of modification ≥70%) | > 20 µM |
| C=CC(=O)N1CC2(CCN(c3ncnc4c(F)c(-c5ccc(F)c6sc(N)nc56)c(Cl)cc34)CC2)C1 [Compound 26] | D (percent of modification <10%) | A (percent of modification ≥70%) | > 20 µM |
| Nc1nc2c(-c3c(Cl)cc4c(N5CC6(CN(C(=O)CCl)C6)C5)ncnc4c3F)ccc(F)c2s1 [Compound 27] | C (10%≤percent of modification <50%) | B (50≤percent of modification <70%) | 5 to 20 µM |
| C=CC(=O)N1CC2(C1)CN(c1ncnc3c(F)c(-c4ccc(F)c5sc(N)nc45)c(Cl)cc13)C2 [Compound 28] | D (percent of modification <10%) | A (percent of modification ≥70%) | > 20 µM |
| C=CC(=O)N1CC(Nc2nc(O[C@@H]3CN(C)C[C@H]3OC)nc3c(F)c(-c4ccc(F)c5sc(N)nc45)c(Cl)cc23)C1 [Compound 31] | B (50≤percent of modification <70%) | A (percent of modification ≥70%) | 0.5 to 5 µM |
| C=CC(=O)N1CC2CN(c3nc(OC[C@@H]4CCCN4C)nc4c(F)c(-c5ccc(F)c6sc(N)nc56)c(Cl)cc34)CC2C1 (stereo partly drawn) [Compound 32] | D (percent of modification <10%) | A (percent of modification ≥70%) | > 20 µM |
| C=CC(=O)N1CCN(c2nc(OC[C@@H]3CCCN3C)nc3c(F)c(-c4ccc(F)c5sc(N)nc45)ncc23)CC1 [Compound 33, (S)-1-(4-(7-(2-amino-7-fluorobenzo[d]thiazol-4-yl)-8-fluoro-2-((1-methylpyrrolidin-2-yl)methoxy)pyrido[4,3-d]pyrimidin-4-yl)piperazin-1-yl)prop-2-en-1-one] | C (10%≤percent of modification <50%) | A (percent of modification ≥70%) | 0.5 to 5 µM |
| C#Cc1cc2c(N3CCN(C(=O)C=C)CC3)ncnc2c(F)c1-c1ccc(F)c2sc(N)nc12 [Compound 34] | D (percent of modification <10%) | A (percent of modification ≥70%) | > 20 µM |
| C=CC(=O)N1CC(Nc2nc(OC[C@@H]3C[C@@H](OC)CN3C)nc3c(F)c(-c4ccc(F)c5sc(N)nc45)c(Cl)cc23)C1 [Compound 36] | A (percent of modification ≥70%) | A (percent of modification ≥70%) | < 0.5 µM |
| C=CC(=O)NCCNc1nc(OC[C@@H]2CCCN2C)nc2c(F)c(-c3ccc(F)c4sc(N)nc34)c(Cl)cc12 [Compound 37] | C (10%≤percent of modification <50%) | A (percent of modification ≥70%) | 0.5 to 5 µM |
| C=CC(=O)N(C)CCNc1nc(OC[C@@H]2CCCN2C)nc2c(F)c(-c3ccc(F)c4sc(N)nc34)c(Cl)cc12 [Compound 38] | C (10%≤percent of modification <50%) | A (percent of modification ≥70%) | 5 to 20 µM |
| C=CC(=O)N1CCN(c2nc(OC[C@@H]3CCCN3C)nc3c(F)c(-c4ccc(F)c5sc(N)nc45)c(Cl)cc23)[C@@H](C)C1 [Compound 39] | C (10%≤percent of modification <50%) | A (percent of modification ≥70%) | 0.5 to 5 µM |
| C#Cc1cc2c(N3CCN(C(=O)CCl)CC3)ncnc2c(F)c1-c1ccc(F)c2sc(N)nc12 [Compound 41] | A (percent of modification ≥70%) | A (percent of modification ≥70%) | 0.5 to 5 µM |
| C=CC(=O)N1CCN(c2ncnc3c(F)c(-c4ccc(F)c5sc(N)nc45)c(C(F)(F)F)cc23)CC1 [Compound 42, 1-(4-(7-(2-amino-7-fluorobenzo[d]thiazol-4-yl)-8-fluoro-6-(trifluoromethyl)quinazolin-4-yl)piperazin-1-yl)prop-2-en-1-one] | D (percent of modification <10%) | A (percent of modification ≥70%) | 5 to 20 µM |
| C=CC(=O)N1CC(Nc2nc(OC[C@@H]3CCCN3C)nc3c(F)c(-c4ccc(F)c5sc(N)nc45)ncc23)C1 [Compound 43] | C (10%≤percent of modification <50%) | A (percent of modification ≥70%) | > 20 µM |
| C=CC(=O)N1CCN(c2nc(OC[C@@H]3CCCN3C)nc3c(F)c(-c4ccc(F)c5sc(N)nc45)c(Cl)cc23)CC1 [Compound 44] | C (10%≤percent of modification <50%) | A (percent of modification ≥70%) | 0.5 to 5 µM |
